The source of these data is ChEMBL document CHEMBL1909511, “Inhalation by design: novel tertiary amine muscarinic M₃ receptor antagonists with slow off-rate binding kinetics for inhaled once-daily treatment of chronic obstructive pulmonary disease” (J Med Chem, 2011).

By UniProt entry, the sequences of proteins in these tests, tags left out. Where a name states a change or a piece, a line headed by the entry shows the natural chain unless it says otherwise.
UniProt P20309, whole entry: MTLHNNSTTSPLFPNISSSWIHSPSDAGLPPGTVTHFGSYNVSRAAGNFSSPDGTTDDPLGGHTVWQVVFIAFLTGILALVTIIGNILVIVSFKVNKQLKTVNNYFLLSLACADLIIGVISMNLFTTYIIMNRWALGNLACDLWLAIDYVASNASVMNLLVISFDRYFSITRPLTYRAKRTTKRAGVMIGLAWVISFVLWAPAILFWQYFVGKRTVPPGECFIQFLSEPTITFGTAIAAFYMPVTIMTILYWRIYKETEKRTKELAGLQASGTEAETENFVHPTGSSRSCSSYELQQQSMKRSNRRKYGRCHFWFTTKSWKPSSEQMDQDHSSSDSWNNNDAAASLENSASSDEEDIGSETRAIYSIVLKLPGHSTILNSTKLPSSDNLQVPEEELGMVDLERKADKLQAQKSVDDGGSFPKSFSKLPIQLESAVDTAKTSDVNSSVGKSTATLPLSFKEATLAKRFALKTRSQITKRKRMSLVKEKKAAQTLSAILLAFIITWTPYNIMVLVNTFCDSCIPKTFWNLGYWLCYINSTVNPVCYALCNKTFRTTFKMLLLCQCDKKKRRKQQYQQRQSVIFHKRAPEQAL
UniProt P08172, whole entry: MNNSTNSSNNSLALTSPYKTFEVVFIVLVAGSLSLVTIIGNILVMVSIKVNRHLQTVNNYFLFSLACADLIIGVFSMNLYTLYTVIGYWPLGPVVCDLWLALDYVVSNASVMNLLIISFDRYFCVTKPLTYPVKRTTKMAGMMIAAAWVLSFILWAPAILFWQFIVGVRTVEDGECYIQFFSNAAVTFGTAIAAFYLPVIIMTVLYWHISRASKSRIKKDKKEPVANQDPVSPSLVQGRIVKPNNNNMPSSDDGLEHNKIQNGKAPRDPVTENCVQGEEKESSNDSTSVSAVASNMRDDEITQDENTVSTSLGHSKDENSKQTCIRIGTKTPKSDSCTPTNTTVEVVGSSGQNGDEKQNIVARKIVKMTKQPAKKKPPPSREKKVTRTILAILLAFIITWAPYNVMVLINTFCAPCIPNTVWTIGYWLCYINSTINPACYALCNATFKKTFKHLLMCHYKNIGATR
UniProt P11229: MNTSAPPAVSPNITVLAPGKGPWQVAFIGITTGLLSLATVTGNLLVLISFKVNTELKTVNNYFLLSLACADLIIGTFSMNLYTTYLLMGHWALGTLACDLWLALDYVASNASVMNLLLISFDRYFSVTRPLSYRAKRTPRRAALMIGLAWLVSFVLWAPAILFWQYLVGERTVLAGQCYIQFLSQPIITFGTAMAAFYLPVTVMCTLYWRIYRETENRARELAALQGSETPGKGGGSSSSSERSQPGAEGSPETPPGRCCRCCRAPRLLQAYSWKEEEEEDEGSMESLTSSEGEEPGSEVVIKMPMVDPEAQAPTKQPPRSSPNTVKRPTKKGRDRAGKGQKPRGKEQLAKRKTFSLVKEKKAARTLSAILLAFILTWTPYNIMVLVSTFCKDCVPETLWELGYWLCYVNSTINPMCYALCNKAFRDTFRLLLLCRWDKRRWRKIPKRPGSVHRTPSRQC

Assay [1] addresses T1, Muscarinic acetylcholine receptor M3 (Homo sapiens, UniProt P20309). The assay is described as follows: Antagonist activity at human recombinant M3 receptor expressed in CHO-K1 cells assessed as inhibition of carbamoyl choline-induced calcium currents after 4 hrs by fluorimetry. Type of assay: functional, cell-based.
In assay [2] the target is T1, Muscarinic acetylcholine receptor M3. The assay is described as follows: Displacement of [3H]-NMS from human recombinant M3 receptor expressed in CHO cells after 2 hrs by filter binding assay. Type of assay: cell-based.
Assay [3] has as its target T2, Muscarinic acetylcholine receptor M2 (Homo sapiens, UniProt P08172). The assay is described as follows: Displacement of [3H]-NMS from human recombinant M2 receptor expressed in CHO cells after 2 hrs by filter binding assay. Type of assay: cell-based. For orientation: Displacement assays read how much labelled ligand stays bound in the presence of the test substance.

Assay [4] addresses T1, Muscarinic acetylcholine receptor M3. The assay is described as follows: Displacement of [3H]-NMS from human recombinant M3 receptor expressed in CHO cells after 24 hrs by filter binding assay. It counts as cell-based.
Assay [5] concerns the target Muscarinic acetylcholine receptor M1 (Homo sapiens, UniProt P11229). The assay is described as follows: Displacement of [3H]-NMS from human recombinant M1 receptor expressed in CHO cells after 24 hrs by filter binding assay. Type of assay: cell-based.
Assay [6] addresses T2, Muscarinic acetylcholine receptor M2. The assay is described as follows: Displacement of [3H]-NMS from human recombinant M2 receptor expressed in CHO cells after 24 hrs by filter binding assay. It counts as cell-based.

For `CC(C)[N+]1(C)C2CCC1CC(OC(=O)C(CO)c1ccccc1)C2.O.[Br-]` (stereo unspecified), the inhibition constant Ki (as a rule, a dissociation constant, usually derived from enzyme kinetics or from competition with a known ligand) in assay [1] worked out at 0.19 nM; in assay [2] it was 0.29 nM; in assay [3], 0.48 nM; in assay [4], 0.213 nM; in assay [5] it was 0.433 nM; in assay [6] it was 0.413 nM.
